The record followed here is ChEMBL document CHEMBL4196212, “Targeting Cytochrome P450 (CYP) 1B1 Enzyme with Four Series of A-Ring Substituted Estrane Derivatives: Design, Synthesis, Inhibitory Activity, and Selectivity” (J Med Chem, 2018).

The assay deals with T1, Cytochrome P450 1B1 (Homo sapiens, UniProt Q16678).
T1 sequence (Q16678 whole entry): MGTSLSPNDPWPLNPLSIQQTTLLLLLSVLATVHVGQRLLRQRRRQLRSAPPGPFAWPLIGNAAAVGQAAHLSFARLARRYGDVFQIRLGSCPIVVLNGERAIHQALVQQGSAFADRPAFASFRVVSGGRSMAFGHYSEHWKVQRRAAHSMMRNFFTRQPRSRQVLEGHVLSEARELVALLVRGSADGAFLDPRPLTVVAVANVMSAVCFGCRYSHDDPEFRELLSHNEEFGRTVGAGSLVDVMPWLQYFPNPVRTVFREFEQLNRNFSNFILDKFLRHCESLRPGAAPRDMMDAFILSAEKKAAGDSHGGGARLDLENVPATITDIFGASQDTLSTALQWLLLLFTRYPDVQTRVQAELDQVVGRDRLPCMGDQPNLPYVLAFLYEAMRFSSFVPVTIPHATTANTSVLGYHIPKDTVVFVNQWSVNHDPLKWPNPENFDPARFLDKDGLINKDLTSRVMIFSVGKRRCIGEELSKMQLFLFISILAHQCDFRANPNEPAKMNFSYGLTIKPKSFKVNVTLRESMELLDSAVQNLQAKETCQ
The assay can be described thus: Inhibition of recombinant human CYP1B1 incubated for 45 mins using 7-ethyl-O-resorufin substrate in presence of NADPH regenerating system by fluorescence based ethoxyresorufin-O-deethylase assay.

As to `O=c1cc(-c2ccccc2)oc2c1ccc1ccccc12` [ALPHA-NAPHTHOFLAVONE], the half-inhibitory concentration (IC50) turned out to be 240 nM.

By IC50 is commonly meant the point on the concentration scale where inhibition reaches its midpoint.
